Source: publication PMC8920097, “Prediction of hERG inhibition of drug discovery compounds using biomimetic HPLC measurements” (ADMET & DMPK, 2021)

Protein sequences, listed by entry. Tags and fused reporters are not part of them. Residues count along the entry.
UniProt P02768, 25-609: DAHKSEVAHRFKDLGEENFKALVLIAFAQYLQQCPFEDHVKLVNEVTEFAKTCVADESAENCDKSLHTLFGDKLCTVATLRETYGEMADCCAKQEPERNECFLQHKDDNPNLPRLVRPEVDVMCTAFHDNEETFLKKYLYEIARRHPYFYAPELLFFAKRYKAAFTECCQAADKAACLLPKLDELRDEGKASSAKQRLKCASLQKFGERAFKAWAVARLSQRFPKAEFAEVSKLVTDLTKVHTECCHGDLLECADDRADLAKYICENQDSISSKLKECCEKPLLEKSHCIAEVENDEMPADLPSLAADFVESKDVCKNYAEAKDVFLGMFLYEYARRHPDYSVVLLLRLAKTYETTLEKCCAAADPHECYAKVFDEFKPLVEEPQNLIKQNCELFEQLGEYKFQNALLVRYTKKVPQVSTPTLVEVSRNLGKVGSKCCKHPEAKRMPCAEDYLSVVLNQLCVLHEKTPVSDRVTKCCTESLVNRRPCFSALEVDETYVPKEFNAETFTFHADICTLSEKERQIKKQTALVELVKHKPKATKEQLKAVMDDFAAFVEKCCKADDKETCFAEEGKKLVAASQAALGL

Columns and labels:
[1] = molecular target: human serum albumin (HSA) (Homo sapiens, UniProt P02768); conditions: pH 7.4, Chiralpak HSA
hERG channel = conditions: cited from earlier work
[2] = CHI lipophilicity by gradient reversed-phase HPLC (Gemini NX-C-18); conditions: for chromatographic logD: Gemini NX-C-18 reversed-phase HPLC column, pH 7.4; for chromatographic logP: reversed-phase HPLC, Gemini NX-C-18 column (50 x 3 mm, 5 µm)
[3] = Phospholipid binding at pH 7.4 on IAM PC.DD2 HPLC column; conditions: for CHI IAM: pH 7.4; for log k IAM: pH 7.4, derived from CHI IAM by equation 1
AGP = conditions: calibration set; equilibrium dialysis; literature; cited from earlier work

SMILES	chromatographic logD [2]	chromatographic logP [2]	CHI IAM [3]	log k IAM [3]	also measured
Cc1cc2c(s1)Nc1ccccc1N=C2N1CCN(C)CC1 [Olanzapine]	1.96	2.76	–	–	log k HSA [1]: 0.76; hERG pIC50 (hERG channel): 5.06
OCCOCCN1CCN(C2=Nc3ccccc3Sc3ccccc32)CC1 [Quetiapine]	–	–	39.38	2.23	–
O=C(CCCN1CC=C(n2c(=O)[nH]c3ccccc32)CC1)c1ccc(F)cc1 [Droperidol]	–	–	–	2.23	–
O=C(O)Cc1ccccc1Nc1c(Cl)cccc1Cl [Diclofenac]	–	–	–	–	% AGP (AGP): 60.0%
CCOC(=O)C1=C(C)NC(C)=C(C(=O)OC)C1c1cccc([N+](=O)[O-])c1 (stereo not drawn) [Nitrendipine]	–	–	39.36	2.23	–
Cc1nc2n(c(=O)c1CCN1CCC(c3noc4cc(F)ccc34)CC1)CCCC2 [Risperidone]	1.46	2.18	–	–	–
